# Apparent affinities of Ab-14 variants for a coronavirus HR2 peptide

Data: MIT Lincoln Laboratory AlphaSeq set, Li et al. 2023, doi:10.1038/s41467-023-39022-2, as distributed in FLAb.

Antigen: PDVDLGDISGINAS, a 14-residue peptide of the SARS-CoV-2 spike HR2 region.

Parent scFv Ab-14: VH joined to VL by the linker GGGGSGGGGSGGGGS. Changes lie in the light chain CDRs alone.
VH: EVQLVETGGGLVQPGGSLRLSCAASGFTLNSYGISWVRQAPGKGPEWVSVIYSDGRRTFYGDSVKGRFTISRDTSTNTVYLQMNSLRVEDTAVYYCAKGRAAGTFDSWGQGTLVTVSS
VL: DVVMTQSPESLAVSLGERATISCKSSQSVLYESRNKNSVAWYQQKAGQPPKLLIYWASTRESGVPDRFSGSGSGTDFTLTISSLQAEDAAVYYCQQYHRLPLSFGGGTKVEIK

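Designed CDR sequences, proposed from the first random library and measured here. Group labels follow the data file (Ctrl: baseline library sampled from a position-specific scoring matrix, with some repeated check sequences; GP: Gaussian process model; GPLM: also part of the Gaussian process libraries; HC: hill climbing; Gen: genetic algorithm; Gibbs: Gibbs sampling; a sequence that several methods proposed may carry one label only). In AlphaSeq, yeast of one mating type display the scFv and yeast of the other type display the target. After mating in shaken culture at 30 °C for 16 h, diploids were selected and their barcode pairs sequenced. Scores were corrected for input abundance and mapped to Kd with protein pairs of known affinity run in the same pool. Mating was done six times.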

Positions count from residue 1 of the parent VL; S25I puts I in place of S.
This list holds designs with at most six substitutions.
Numbers give log10(Kd / nM), so 0 is 1 nM and 3 is 1 µM. Smaller is tighter.
A mean of the replicates is given; it leaves out those without a signal.
A pair that was not seen in any replicate is written "nd"; this usually means weak binding, but a binder can also be missed.
The authors' rule: three or more of the six replicates give a measured affinity, fewer mean a poor binder.
The parent sequence was in this pool as ten entries: three were never detected, three once, and four in most replicates, with averages from 0.34 to 2.37.
As a blank, each scFv also met three strains without target: over all light chain designs, 4% of these pairings were detected, typically at 2.64 and seldom below 1.59.
A sequence measured in both rounds can read differently, since the two assays cover different ranges.
Some sequences occur more than once in the pool; their replicates are pooled.

With S25I/S103F [Ctrl] the result was 0.32 (6 of 6 replicates). Variant S26L/V29D/W56H/S62D/R99Q [GP_HC] showed -0.31 (6 of 6 replicates). With V29D/L30R/K36T [Ctrl] the result was 2.35 (4 of 6 replicates). Variant S25L/S26Q/V29T/K36P/W56N [GP_HC] gave -0.47 (6 of 6 replicates). With S25I/V29E/Y31E/S58T/T59V/S62A [GP_Gibbs] the result was 0.41 (6 of 6 replicates).

For W56M/H98S [Ctrl], the assay gave 0.57 (2 of 6 replicates). Variant S25L/V29F/W56N/T59Q/S62E [GP_Gen] showed -0.71 (6 of 6 replicates). Variant W56G/S62Q [Ctrl] gave nd (0 of 6 replicates). Variant S25L/S26Q/L30D/W56N/S62Q/R99Q [GP_Gibbs] showed -0.11 (6 of 6 replicates). For S26L/V29T/W56H/S62D [GP_HC], the assay gave 0.14 (6 of 6 replicates).

Variant E32L/K36G/Q95T [Ctrl] gave nd (0 of 6 replicates). Variant Q27E/L30T/Y31W/H98L [Ctrl] gave 2.19 (2 of 6 replicates). Variant K24H/S25L/L30W/W56N [GP_Gen] showed 0.40 (6 of 6 replicates). Variant S25F/W56G [Ctrl+GP_Gen] gave 0.45 (11 of 12 replicates). Variant S25L/S28L/V29E/W56N/E61M [GP_Gen] showed -0.29 (6 of 6 replicates).

For S26D/S62T [Ctrl], the assay gave 2.17 (6 of 6 replicates). Variant E61V/Q96I/Y97H [Ctrl] showed 2.31 (1 of 6 replicates). Variant S25L/V29N/W56E/E61C [GP_Gen] showed -0.06 (6 of 6 replicates). For S25L/N35D/S38A/W56D [GP_Gen], the assay gave -0.23 (6 of 6 replicates). With A57C/S58N [Ctrl] the result was nd (0 of 6 replicates).

Variant A57G/H98D [Ctrl] showed 2.01 (6 of 6 replicates). Variant Q27I/V29P/W56A [GP_HC] showed 0.12 (6 of 6 replicates). Variant S25L/S28Q/V29N/W56N [GP_Gen] showed -0.03 (6 of 6 replicates). Variant S25L/V29E/W56E/S62D [GP_Gen] showed 0.00 (6 of 6 replicates). With K24H/S25Q/W56N/A57G [GP_HC] the result was 0.06 (6 of 6 replicates).

With S25L/S26P/L30P/W56G [GP_Gen] the result was -0.27 (6 of 6 replicates). For V29Q/E32L/K36G/W56E/P101E [Ctrl], the assay gave 0.07 (6 of 6 replicates). For S25F/S28K/S33G/N35T/W56N [GP_HC], the assay gave 0.24 (6 of 6 replicates). Variant S25L/W56S/S62E [Ctrl] gave -0.25 (6 of 6 replicates). Variant Q27Y/V29Y/K36T/W56E [GP_HC] gave 0.29 (6 of 6 replicates).

Variant A40S/L100H [Ctrl] gave nd (0 of 6 replicates). For S25L/V29F/W56G/Q96D [GP_Gen], the assay gave -0.24 (6 of 6 replicates). With S25M/R34S [Ctrl] the result was 0.41 (6 of 6 replicates). Variant V29E/W56G/P101T [GPLM_HC] showed -0.44 (6 of 6 replicates). With S25L/N37A/W56E [GP_Gen] the result was 0.08 (6 of 6 replicates).

Variant Q27M/V29W/W56G [GP_HC] showed -0.27 (6 of 6 replicates). With Q27I/V29Y/Y31G/S33D/R34L/W56E [GP_HC] the result was 0.64 (6 of 6 replicates).

Extract of 4 entries:

| changes | group | mean, log10 nM | detected |
|---|---|---|---|
| S25L/V29E/W56E/S62D | GP_Gen | 0.00 | 6/6 |
| Q27I/V29Y/Y31G/S33D/R34L/W56E | GP_HC | 0.64 | 6/6 |
| W56G/S62Q | Ctrl | nd | 0/6 |
| V29D/L30R/K36T | Ctrl | 2.35 | 4/6 |